In patent publication US10934305B2, “SHMT inhibitors” (The Trustees of Princeton University, priority 2016, dated 2021):

Experiment: Liver microsome assay (metabolic stability)
Format: in vitro ADME, mouse
Conditions: 2 μM compound, 0.5 mg/mL microsomes, 37° C.
Method: Male CD-1 mouse liver microsomes were obtained from commercial sources (Corning #452701). The following master solution was prepared before compound addition:
Two separate experiments were performed as follows: a) With Cofactors (NADPH and UDPGA): 40 μL of 10 mM NADPH and 40 μL of 20 mM UDPGA were added to the incubations. The final concentrations of microsomes, NADPH and UDPGA were 0.5 mg/mL, 1 mM and 2 mM, respectively. b) Without Cofactors (NADPH and UDPGA): 10 μL of 20 mg/mL liver microsomes and 80 μL of ultra-pure water were added to the incubations. The final concentration of microsomes was 0.5 mg/mL. The mixture was pre-warmed at 37° C. for 5 minutes.
The reaction was started with the addition of 4 μL of 200 μM control compound or test compound solution. Verapamil was used as positive control in this study. The final concentration of test compound or control compound was 2 μM. The incubation solution was incubated in water bath at 37° C. Aliquots of 50 μL were taken from the reaction solution at 0.5, 5, 15, 30, 45 and 60 minutes. The reaction was stopped by the addition of 5 volumes of cold acetonitrile with IS (100 nM alprazolam, 200 nM caffeine and 100 nM tolbutamide). Samples were centrifuged at 3,220 g for 40 minutes. […] The in vitro half-life (in vitro t1/2) was determined from the slope value of the LC-MS signal of the test compound.

Structure (SMILES): Cc1n[nH]c2c1C(c1cc(CO)cc(-c3cccc(CC(N)=O)c3)c1)(C(C)C)C(C#N)=C(N)O2 (centres unmarked) [HK-X3]
- CLint (μL/min/mg protein) (replicate 1) (replicate 1): 91.87 μL/min/mg protein
- CLint (μL/min/mg protein) (replicate 2) (replicate 2): 94.28 μL/min/mg protein
